Activity calls are given as the source filed them.
Key:
[1] = molecular target: T1, Heat shock protein HSP 90-beta/Hsp90 co-chaperone Cdc37 (Homo sapiens, UniProt P08238+Q16543); experiment: Disruption of HSP90 and Cdc37 in human MDA-MB-231 cells at 200 nM measured after 48 hrs by immunoprecipitation method; type: cell-based
[2] = molecular target: T1, Heat shock protein HSP 90-beta/Hsp90 co-chaperone Cdc37; experiment: Disruption of HSP90 and Cdc37 in human MDA-MB-231 cells assessed as decrease of phosphorylated AKT expression measured by Western blot analysis; type: cell-based
[3] = molecular target: T1, Heat shock protein HSP 90-beta/Hsp90 co-chaperone Cdc37; experiment: Disruption of HSP90 and Cdc37 in human MDA-MB-231 cells assessed as decrease of CDK4 expression measured by Western blot assay; type: cell-based
[4] = molecular target: T1, Heat shock protein HSP 90-beta/Hsp90 co-chaperone Cdc37; experiment: Disruption of HSP90 and Cdc37 in human MDA-MB-231 cells assessed as increase of Bax/Bcl2 ratio at 100 nM measured by Western blot assay; type: cell-based
[5] = molecular target: T1, Heat shock protein HSP 90-beta/Hsp90 co-chaperone Cdc37; experiment: Disruption of HSP90 and Cdc37 in human MDA-MB-231 cells assessed as increase of Bax/Bcl2 ratio at 200 nM measured by Western blot assay; type: cell-based
[6] = molecular target: T1, Heat shock protein HSP 90-beta/Hsp90 co-chaperone Cdc37; experiment: Disruption of HSP90 and Cdc37 in human MDA-MB-231 cells assessed as increase of cytochrome C release at 100 nM measured by Western blot assay; type: cell-based
[7] = molecular target: T1, Heat shock protein HSP 90-beta/Hsp90 co-chaperone Cdc37; experiment: Disruption of HSP90 and Cdc37 in human MDA-MB-231 cells assessed as increase of cytochrome C release at 200 nM measured by Western blot assay; type: cell-based
[8] = molecular target: T1, Heat shock protein HSP 90-beta/Hsp90 co-chaperone Cdc37; experiment: Disruption of HSP90 and Cdc37 in human MDA-MB-231 cells assessed as increase of caspase 3 release at 100 nM measured by Western blot assay; type: cell-based
[9] = molecular target: T1, Heat shock protein HSP 90-beta/Hsp90 co-chaperone Cdc37; experiment: Disruption of HSP90 and Cdc37 in human MDA-MB-231 cells assessed as increase of caspase 3 release at 200 nM measured by Western blot assay; type: cell-based
[10] = molecular target: T1, Heat shock protein HSP 90-beta/Hsp90 co-chaperone Cdc37; experiment: Disruption of HSP90 and Cdc37 in human MDA-MB-231 cells assessed as increase of caspase 9 release at 100 nM measured by Western blot assay; type: cell-based
[11] = molecular target: T1, Heat shock protein HSP 90-beta/Hsp90 co-chaperone Cdc37; experiment: Disruption of HSP90 and Cdc37 in human MDA-MB-231 cells assessed as increase of caspase 9 release at 200 nM measured by Western blot assay; type: cell-based
MDA-MB-231 [12] = experiment: Induction of cell cycle arrest in human MDA-MB-231 cells assessed as accumulation of cells at G0/G1 phase measured after 48 hrs by PI staining based flow cytometry analysis; type: functional
MDA-MB-231 [13] = experiment: Induction of mitochondrial apoptosis in human MDA-MB-231 cells measured after 48 hrs by Hoechst 33258/ JC1 staining based flow cytometry assay; type: functional, cell-based
MDA-MB-231 [14] = experiment: Antitumour activity against human MDA-MB-231 cells xenografted in nude mouse assessed as inhibition of tumour growth at 10 mg/kg, po measured after 26 days relative to carboplatin; type: functional, organism-based; details: time 26.0 day
MDA-MB-231 [15] = experiment: Antitumour activity against human MDA-MB-231 cells xenografted in nude mouse assessed as decrease of phosphorylated Akt expression at 10 mg/kg, po measured after 26 days by Western blot assay; type: functional, organism-based; details: time 26.0 day
MDA-MB-231 [16] = experiment: Antitumour activity against human MDA-MB-231 cells xenografted in nude mouse assessed as increase of Bax expression at 10 mg/kg, po measured after 26 days by Western blot assay; type: functional, organism-based; details: time 26.0 day
MDA-MB-231 [17] = experiment: Antitumour activity against human MDA-MB-231 cells xenografted in nude mouse assessed as increase of Bcl2 expression at 10 mg/kg, po measured after 26 days by Western blot assay; type: functional, organism-based; details: time 26.0 day
MDA-MB-231 [18] = experiment: Antitumour activity against human MDA-MB-231 cells xenografted in nude mouse assessed as decrease of HSP90 expression at 10 mg/kg, po measured after 26 days by Western blot assay; type: functional, organism-based; details: time 26.0 day
MDA-MB-231 [19] = experiment: Antitumour activity against human MDA-MB-231 cells xenografted in nude mouse assessed as decrease of Cdc37 expression at 10 mg/kg, po measured after 26 days by Western blot assay; type: functional, organism-based; details: time 26.0 day
Danio rerio [20] = species: Danio rerio; experiment: Anti-angiogenesis activity in zebrafish embryo assessed as blockage of intersegmental vessels formation at 0.05 uM measured after 24 hrs by Flourescence assay; type: functional, organism-based
Danio rerio [21] = species: Danio rerio; experiment: Anti-angiogenesis activity in zebrafish embryo assessed as blockage of intersegmental vessels formation at 0.1 uM measured after 24 hrs by Flourescence assay; type: functional, organism-based
Danio rerio [22] = species: Danio rerio; experiment: Anti-angiogenesis activity in zebrafish embryo assessed as blockage of intersegmental vessels formation at 0.2 uM measured after 24 hrs by Flourescence assay; type: functional, organism-based

By UniProt entry, the sequences of proteins in these tests, tags left out. Where a name states a change or a piece, a line headed by the entry shows the natural chain unless it says otherwise.
UniProt P08238: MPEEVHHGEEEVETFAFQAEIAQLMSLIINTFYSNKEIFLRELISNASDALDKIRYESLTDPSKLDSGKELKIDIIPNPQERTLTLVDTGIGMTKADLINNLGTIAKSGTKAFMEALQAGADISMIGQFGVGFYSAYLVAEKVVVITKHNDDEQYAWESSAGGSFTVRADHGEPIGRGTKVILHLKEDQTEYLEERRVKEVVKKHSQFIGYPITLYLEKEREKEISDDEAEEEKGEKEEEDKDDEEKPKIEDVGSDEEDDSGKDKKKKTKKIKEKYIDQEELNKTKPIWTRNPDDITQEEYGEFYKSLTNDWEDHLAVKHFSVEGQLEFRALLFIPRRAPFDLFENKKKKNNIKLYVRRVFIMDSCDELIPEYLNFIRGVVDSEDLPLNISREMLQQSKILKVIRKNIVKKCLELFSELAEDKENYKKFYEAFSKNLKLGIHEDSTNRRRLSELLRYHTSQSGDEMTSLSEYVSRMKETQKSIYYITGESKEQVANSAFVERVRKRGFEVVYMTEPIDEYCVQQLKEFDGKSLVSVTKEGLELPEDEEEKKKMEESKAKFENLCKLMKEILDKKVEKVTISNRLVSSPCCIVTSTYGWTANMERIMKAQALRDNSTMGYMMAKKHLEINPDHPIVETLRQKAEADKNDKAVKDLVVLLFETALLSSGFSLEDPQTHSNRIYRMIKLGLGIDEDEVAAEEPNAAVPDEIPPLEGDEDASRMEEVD
UniProt Q16543: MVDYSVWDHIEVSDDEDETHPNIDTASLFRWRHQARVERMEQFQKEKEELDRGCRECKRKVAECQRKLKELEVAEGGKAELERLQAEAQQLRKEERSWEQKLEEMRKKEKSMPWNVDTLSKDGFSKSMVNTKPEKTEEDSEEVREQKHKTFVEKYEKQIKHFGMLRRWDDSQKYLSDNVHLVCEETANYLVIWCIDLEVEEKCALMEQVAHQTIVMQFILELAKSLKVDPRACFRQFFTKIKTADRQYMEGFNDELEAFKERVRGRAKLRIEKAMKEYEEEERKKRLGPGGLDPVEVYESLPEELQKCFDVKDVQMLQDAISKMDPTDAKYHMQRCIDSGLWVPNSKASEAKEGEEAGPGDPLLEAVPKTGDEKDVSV

Measured: Activity

C#CCOC(=O)[C@]1(C)CC[C@]2(C)CC[C@]3(C)C4=CC=C5C(=CC(=O)C(OC(=O)N6CCC(N7CCCCC7)CC6)=C5C)[C@]4(C)CC[C@@]3(C)[C@@H]2C1
active: [1] | [2] Dose-Dependent Effect | [3] Dose-Dependent Effect | [4] | [5] | [6] | [7] | [8] | [9] | [10] | [11] | MDA-MB-231 [12] Dose-Dependent Effect | MDA-MB-231 [13] Dose-Dependent Effect | MDA-MB-231 [14] | MDA-MB-231 [15] | MDA-MB-231 [16] | MDA-MB-231 [17] | MDA-MB-231 [18] | MDA-MB-231 [19] | Danio rerio [20] | Danio rerio [21] | Danio rerio [22]

— ChEMBL document CHEMBL5230144, “Synthesis and Biological Evaluation of Celastrol Derivatives with Improved Cytotoxic Selectivity and Antitumor Activities” (J Nat Prod, 2021)
